Laboratory results taken from patent publication US8568699B2, “Soft anticholinergic zwitterions” (priority 2005, dated 2013).

Sequences of proteins named here, by UniProt entry; tags and fusion partners are left off. A change or cut given only in a name is not applied to a line headed by its entry.
UniProt P08173, whole entry, looked up: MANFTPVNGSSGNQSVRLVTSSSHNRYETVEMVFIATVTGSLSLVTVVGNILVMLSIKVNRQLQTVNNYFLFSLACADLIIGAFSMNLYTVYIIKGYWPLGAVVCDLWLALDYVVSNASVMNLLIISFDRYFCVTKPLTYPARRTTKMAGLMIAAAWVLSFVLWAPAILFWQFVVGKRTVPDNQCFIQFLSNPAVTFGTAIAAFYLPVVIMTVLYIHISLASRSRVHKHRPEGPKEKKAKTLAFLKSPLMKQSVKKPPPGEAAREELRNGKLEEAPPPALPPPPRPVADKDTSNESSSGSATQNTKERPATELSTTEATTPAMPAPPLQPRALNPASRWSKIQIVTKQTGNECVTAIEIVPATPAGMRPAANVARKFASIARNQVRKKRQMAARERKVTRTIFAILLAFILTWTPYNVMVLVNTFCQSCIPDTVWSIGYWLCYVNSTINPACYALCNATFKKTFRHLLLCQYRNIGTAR
UniProt P11229: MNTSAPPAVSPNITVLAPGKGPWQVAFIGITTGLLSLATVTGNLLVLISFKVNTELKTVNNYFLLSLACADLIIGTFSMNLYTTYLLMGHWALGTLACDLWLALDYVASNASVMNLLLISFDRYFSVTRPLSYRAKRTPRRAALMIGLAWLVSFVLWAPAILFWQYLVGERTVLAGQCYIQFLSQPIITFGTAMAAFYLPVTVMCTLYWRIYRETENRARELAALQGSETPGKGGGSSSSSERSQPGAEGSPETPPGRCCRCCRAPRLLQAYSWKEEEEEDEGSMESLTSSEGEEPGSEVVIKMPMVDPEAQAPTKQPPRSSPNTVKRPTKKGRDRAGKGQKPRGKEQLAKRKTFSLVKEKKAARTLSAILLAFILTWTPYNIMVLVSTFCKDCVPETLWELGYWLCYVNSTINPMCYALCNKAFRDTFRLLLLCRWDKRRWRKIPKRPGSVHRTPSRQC
UniProt P08172, whole entry, looked up: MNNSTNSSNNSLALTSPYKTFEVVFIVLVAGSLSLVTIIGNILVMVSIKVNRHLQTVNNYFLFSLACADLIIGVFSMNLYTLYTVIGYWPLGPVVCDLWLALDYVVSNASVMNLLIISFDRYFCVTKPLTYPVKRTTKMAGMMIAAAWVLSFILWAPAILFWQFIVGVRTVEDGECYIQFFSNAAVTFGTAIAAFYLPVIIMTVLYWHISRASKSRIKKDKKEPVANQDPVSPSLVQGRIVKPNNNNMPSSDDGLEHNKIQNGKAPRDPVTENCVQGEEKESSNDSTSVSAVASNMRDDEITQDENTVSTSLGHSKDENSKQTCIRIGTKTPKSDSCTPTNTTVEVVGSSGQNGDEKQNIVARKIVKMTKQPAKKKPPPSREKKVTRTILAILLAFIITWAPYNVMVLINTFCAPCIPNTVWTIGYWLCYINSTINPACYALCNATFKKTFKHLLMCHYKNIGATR
UniProt P20309, whole entry, looked up: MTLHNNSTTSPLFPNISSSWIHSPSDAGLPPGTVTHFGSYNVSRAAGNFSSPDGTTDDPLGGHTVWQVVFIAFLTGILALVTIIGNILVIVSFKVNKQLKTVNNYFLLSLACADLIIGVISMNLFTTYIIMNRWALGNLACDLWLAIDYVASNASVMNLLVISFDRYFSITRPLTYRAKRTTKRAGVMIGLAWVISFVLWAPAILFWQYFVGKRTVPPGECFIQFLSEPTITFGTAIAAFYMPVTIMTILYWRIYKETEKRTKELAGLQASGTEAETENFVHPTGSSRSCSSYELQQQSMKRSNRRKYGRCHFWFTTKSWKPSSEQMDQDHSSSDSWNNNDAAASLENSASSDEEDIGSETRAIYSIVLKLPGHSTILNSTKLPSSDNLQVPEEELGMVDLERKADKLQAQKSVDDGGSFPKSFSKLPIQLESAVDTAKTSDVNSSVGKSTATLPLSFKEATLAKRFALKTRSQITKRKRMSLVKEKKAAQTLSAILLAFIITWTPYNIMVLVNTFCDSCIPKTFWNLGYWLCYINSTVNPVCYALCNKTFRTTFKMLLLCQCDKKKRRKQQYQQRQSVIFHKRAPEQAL

What was measured:
[1] = molecular target: cloned human muscarinic receptor subtype M4 (Homo sapiens, UniProt P08173); test: Receptor binding, N-[3H]-methyl-scopolamine, M4; details: for M4 Hill slope: numbers in parentheses; for M4 receptor binding pKi: [3H]NMS 0.5 nM, mean ± SD of 3 experiments
[2] = molecular target: cloned human muscarinic receptor subtype M1 (Homo sapiens, UniProt P11229); test: Receptor binding, N-[3H]-methyl-scopolamine, M1; details: for M1 Hill slope: numbers in parentheses; for M1 receptor binding pKi: [3H]NMS 0.5 nM, mean ± SD of 3 experiments
[3] = molecular target: cloned human muscarinic receptor subtype M2 (Homo sapiens, UniProt P08172); test: Receptor binding, N-[3H]-methyl-scopolamine, M2; details: for M2 Hill slope: numbers in parentheses; for M2 receptor binding pKi: [3H]NMS 0.5 nM, mean ± SD of 3 experiments
[4] = molecular target: cloned human muscarinic receptor subtype M3 (Homo sapiens, UniProt P20309); test: Receptor binding, N-[3H]-methyl-scopolamine, M3; details: for M3 Hill slope: numbers in parentheses; for M3 receptor binding pKi: [3H]NMS 0.5 nM, mean ± SD of 3 experiments; for Selectivity M3/M2: M3 versus M2 binding affinity; for M3/M2 subtype selectivity (in words): from receptor binding pKi
rabbit eyes (pupil size) = test: Mydriatic studies, topical administration; assay type: in vivo; details: for AUCeff 0-168 h (area under the mydriatic response-time curve) / Rmax (maximum % change in pupil size): Table 8, topical 0.1 mL
[5] = tested on: cloned human muscarinic receptors (M1-M4 subtypes); test: Receptor binding, values stated across subtypes M1-M4

SMILES | M4 Hill slope ([1]; Table 6) | M1 Hill slope ([2]; Table 6) | M2 Hill slope ([3]; Table 6) | Selectivity M3/M2 (M3/M2 affinity ratio) ([4]; Table 6) [times] | M3 Hill slope ([4]; Table 6) | AUCeff 0-168 h (area under the mydriatic response-time curve) (rabbit eyes (pupil size); Conc. 0.1%) | Rmax (maximum % change in pupil size) (rabbit eyes (pupil size); Conc. 0.1%) [%] | other results
C[N@+]1(CC(=O)[O-])CC[C@H](OC(=O)[C@@](O)(c2ccccc2)C2CCCC2)C1 | (0.95 ± 0.18) | (1.13 ± 0.10) | (1.20 ± 0.02) | 1.0 ± 0.2 | (1.03 ± 0.01) |  |  | 
C[N@@+]1(CC(=O)[O-])CC[C@@H](OC(=O)[C@](O)(c2ccccc2)C2CCCC2)C1 | (0.93 ± 0.01) | (0.97 ± 0.13) | (0.85 ± 0.21) |  | (1.06 ± 0.04) |  |  | 
C[N@@+]1(CC(=O)[O-])CC[C@H](OC(=O)[C@](O)(c2ccccc2)C2CCCC2)C1 | (1.01 ± 0.06) | (1.02 ± 0.03) | (0.80 ± 0.22) | 5.2 ± 0.7 | (0.96 ± 0.03) | 216 ± 29 | 43.90 ± 7.63 | M4 receptor binding pKi ([1]; Table 6): 8.15 ± 0.06; M1 receptor binding pKi ([2]; Table 6): 7.98 ± 0.01; M2 receptor binding pKi ([3]; Table 6): 7.39 ± 0.09; M3 receptor binding pKi ([4]; Table 6): 8.04 ± 0.01
C[N@+]1(CC(=O)[O-])CC[C@@H](OC(=O)[C@@](O)(c2ccccc2)C2CCCC2)C1 | (1.30 ± 0.28) | (1.08 ± 0.03) | (1.01 ± 0.01) | 0.7 ± 0.0 | (1.04 ± 0.08) | 13 ± 15 | 3.87 ± 4.49 | M4 receptor binding pKi ([1]; Table 6): 6.47 ± 0.01; M1 receptor binding pKi ([2]; Table 6): 6.67 ± 0.06; M2 receptor binding pKi ([3]; Table 6): 6.35 ± 0.01; AUCeff 0-168 h (area under the mydriatic response-time curve) (rabbit eyes (pupil size); Conc. 0.4%): 37 ± 3; Rmax (maximum % change in pupil size) (rabbit eyes (pupil size); Conc. 0.4%): 14.88 ± 1.19%; M3 receptor binding pKi ([4]; Table 6): 6.22 ± 0.05
C[N@+]1(CC(=O)[O-])CC[C@H](OC(=O)[C@](O)(c2ccccc2)C2CCCC2)C1 | (0.86 ± 0.06) | (1.01 ± 0.01) | (1.00 ± 0.04) |  | (0.80 ± 0.21) |  |  | 
COC(=O)C[N+]1(C)CCC(OC(=O)C(O)(c2ccccc2)C2CCCC2)C1.[Br-] (racemic) | (1.12 ± 0.05) | (1.02 ± 0.12) | (1.25 ± 0.08) | 1.0 ± 0.0 | (1.17 ± 0.18) |  |  | 
C[N@@+]1(CC(=O)[O-])CC[C@H](OC(=O)[C@@](O)(c2ccccc2)C2CCCC2)C1 |  |  |  |  |  | 0 ± 0 | 0.00 ± 0.00 | AUCeff 0-168 h (area under the mydriatic response-time curve) (rabbit eyes (pupil size); Conc. 0.4%): 0 ± 0; Rmax (maximum % change in pupil size) (rabbit eyes (pupil size); Conc. 0.4%): 0.00 ± 0.00%
C[N@+]1(CC(=O)[O-])CC[C@@H](OC(=O)[C@](O)(c2ccccc2)C2CCCC2)C1 | (1.00 ± 0.06) | (1.25 ± 0.01) | (0.82 ± 0.15) |  | (0.84 ± 0.17) |  |  | 
COC(=O)C[N+]1(C)CC[C@@H](OC(=O)[C@@](O)(c2ccccc2)C2CCCC2)C1.[Br-] (stereo partly drawn) | (1.11 ± 0.03) | (0.98 ± 0.06) | (1.09 ± 0.18) | 0.6 ± 0.1 | (1.15 ± 0.13) |  |  | pKi (range over M1-M4) [5]: 7.0-7.6
C[N@@+]1(CC(=O)[O-])CC[C@@H](OC(=O)[C@@](O)(c2ccccc2)C2CCCC2)C1 | (0.88 ± 0.04) | (1.06 ± 0.05) | (1.24 ± 0.07) | 0.8 ± 0.1 | (1.02 ± 0.12) | 0 ± 0 | 0.00 ± 0.00 | 
CCOC(=O)C[N+]1(C)CCC(OC(=O)[C@](O)(c2ccccc2)C2CCCC2)C1.[Br-] (stereo partly drawn) | (0.89 ± 0.02) | (0.86 ± 0.08) | (0.92 ± 0.01) |  | (1.09 ± 0.15) |  |  | M4 Hill slope ([1]; Table 1): (0.89 ± 0.02); M1 Hill slope ([2]; Table 1): (0.86 ± 0.08); pKi (range over M1-M4) [5]: 8.7-8.9; M2 Hill slope ([3]; Table 1): (0.92 ± 0.01); Recovery time (pupil of treated eye within less than 1 mm of control) (rabbit eyes (pupil size); topical, 0.2% glycopyrrolate, 1.0% Compound (d) and Compound (cc)): 24 h; Selectivity M3/M2 ([4]; Table 1): 0.9; M3 Hill slope ([4]; Table 1): (1.09 ± 0.15); M3/M2 subtype selectivity (in words) [4]: no M3/M2 subtype selectivity
CCOC(=O)C[N+]1(C)CCC(OC(=O)C(O)(c2ccccc2)C2CCCC2)C1.[Br-] (racemic) | (1.18 ± 0.09) | (0.91 ± 0.09) | (1.23 ± 0.06) |  | (1.18 ± 0.08) |  |  | 
COC(=O)C[N+]1(C)CCC(OC(=O)[C@](O)(c2ccccc2)C2CCCC2)C1.[Br-] (stereo partly drawn) | (0.83 ± 0.01) | (0.83 ± 0.11) | (1.10 ± 0.11) |  | (0.83 ± 0.01) |  |  | M4 Hill slope ([1]; Table 1): (0.83 ± 0.01); M1 Hill slope ([2]; Table 1): (0.83 ± 0.11); pKi (range over M1-M4) [5]: 8.9-9.5; M2 Hill slope ([3]; Table 1): (1.10 ± 0.11); Selectivity M3/M2 ([4]; Table 1): 1.4; M3 Hill slope ([4]; Table 1): (0.83 ± 0.01); M3/M2 subtype selectivity (in words) [4]: no M3/M2 subtype selectivity
